Results on one compound are retold here after publication PMC6600871 (Nature chemical biology, 2019).

Each structure is given as a SMILES string.

The data set is described as follows: Caco-2 permeability assay. Conditions: human, Caco-2, pH 7.2. The data set is classed as in vitro ADME. On the technique in general: Caco-2 cells form a polarised layer with tight junctions and transporters.

One may read the efflux ratio as the permeability from basolateral to apical divided by that in the opposite direction, in the common usage. Consider `Cc1ncsc1-c1ccc(CNC(=O)[C@@H]2C[C@@H](O)CN2C(=O)[C@@H](NC(=O)C2(F)CC2)C(C)(C)C)c(OCCOCCOCCN2CCN(c3cc(-c4ccccc4O)nnc3N)CC2)c1` [PROTAC 1, (2S,4R)-N-(2-(2-(2-(2-(4-(3-amino-6-(2-hydroxyphenyl)pyridazin-4-yl)piperazin-1-yl)ethoxy)ethoxy)ethoxy)-4-(4-methylthiazol-5-yl)benzyl)-1-((S)-2-(1-fluorocyclopropane-1-carboxamido)-3,3-dimethylbutanoyl)-4-hydroxypyrrolidine-2-carboxamide], for which the efflux ratio is 190.
